From ChEMBL document CHEMBL4138076, “Methyllysine binding domains: Structural insight and small molecule probe development” (Eur J Med Chem, 2017)

Amino acid sequences for entries named in this document (tags omitted).
UniProt O75530, whole entry: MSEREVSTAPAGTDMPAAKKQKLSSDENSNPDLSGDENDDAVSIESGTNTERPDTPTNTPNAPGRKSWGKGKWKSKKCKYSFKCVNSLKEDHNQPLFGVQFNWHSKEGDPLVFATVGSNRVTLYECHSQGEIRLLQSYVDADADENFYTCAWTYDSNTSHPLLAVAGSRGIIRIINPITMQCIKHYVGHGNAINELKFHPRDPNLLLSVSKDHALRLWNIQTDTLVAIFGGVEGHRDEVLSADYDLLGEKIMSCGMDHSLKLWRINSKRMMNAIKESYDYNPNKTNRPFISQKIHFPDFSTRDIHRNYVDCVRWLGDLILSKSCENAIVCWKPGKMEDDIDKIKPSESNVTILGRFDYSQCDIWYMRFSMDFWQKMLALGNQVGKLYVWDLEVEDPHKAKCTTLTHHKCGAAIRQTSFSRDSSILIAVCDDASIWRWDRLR

Tests used:
[1] = biological target: T1, E3 SUMO-protein ligase CBX4 (Homo sapiens, UniProt O00257); test: Binding affinity to Cbx4 (unknown origin) by ITC method
T1 sequence (O00257 whole entry): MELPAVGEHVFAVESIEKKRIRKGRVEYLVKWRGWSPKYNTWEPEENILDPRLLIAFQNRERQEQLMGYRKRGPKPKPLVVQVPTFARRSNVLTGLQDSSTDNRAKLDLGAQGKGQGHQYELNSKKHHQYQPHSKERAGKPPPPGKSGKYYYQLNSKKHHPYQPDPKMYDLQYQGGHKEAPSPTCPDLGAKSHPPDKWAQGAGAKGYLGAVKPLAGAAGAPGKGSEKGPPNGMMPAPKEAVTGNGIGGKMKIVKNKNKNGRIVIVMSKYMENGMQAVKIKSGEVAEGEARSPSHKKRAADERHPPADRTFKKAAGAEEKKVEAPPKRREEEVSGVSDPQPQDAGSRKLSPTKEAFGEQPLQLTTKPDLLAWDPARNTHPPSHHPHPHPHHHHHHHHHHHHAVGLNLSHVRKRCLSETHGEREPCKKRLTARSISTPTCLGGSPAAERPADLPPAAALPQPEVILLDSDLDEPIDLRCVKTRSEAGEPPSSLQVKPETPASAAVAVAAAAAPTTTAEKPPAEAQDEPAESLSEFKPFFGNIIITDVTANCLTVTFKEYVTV

Polycomb protein EED = Polycomb protein EED (Homo sapiens, UniProt O75530); test: Inhibition of full length N-terminal His-tagged EED (unknown origin) expressed in Rosetta2 BL21(DE3)pLysS cells after 30 mins by 3-FAM labelled fluorescence polarization assay

SMILES | Kd [1] [nM] | IC50 (Polycomb protein EED) [nM]
CCN(CC)CCCC[C@H](NC(=O)[C@H](CC(C)C)NC(=O)[C@H](C)NC(=O)[C@H](Cc1ccccc1)NC(=O)c1ccc(C(C)(C)C)cc1)C(=O)N[C@@H](CO)C(=O)OC | 97 | 
CC(C)N(C)CCCC[C@H](NC(=O)[C@@H]1C[C@@H]2CCCC[C@@H]2N1)C(=O)N[C@@H](Cc1ccccc1)C(=O)N1CCCCC1 |  | 3870
CC(C)C[C@H](NC(=O)[C@H](Cc1ccccc1)NC(=O)[C@H](CCCC[N+](C)(C)C)NC(=O)[C@H](CO)NC(=O)[C@@H]1CCCN1)C(N)=O |  | 1650
